Hits are enriched below; roughly 2.8% of the tested compounds scored in any of these assays.
esBAF inh – SWI/SNF esBAF complex inhibition; mouse ES cells, Bmi1-luciferase knock-in reporter, 24 h; 100% = twice the neutral-well signal; reporter increase, % at 12.5 µM; actives 2% (n = 350,000); in the data active means activation above about 40%; inconclusive means no clear call, values can overlap the other calls;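 further: 0% = median of the plate's neutral control wells and 100% = double that signal; a rise in the Bmi1 reporter signal indicates esBAF inhibition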
PglD inh – inhibitors of Campylobacter jejuni PglD acetyltransferase; actives 0.098% (n = 360,000); purified PglD enzyme, DTNB colorimetric CoA detection; inhibition, % at 12.5 µM; in the data active means inhibition above about 16%, passing the limit was not always enough; inconclusive means no clear call, values can overlap the other calls
MITF TRPM1 HTS – MITF TRPM1 promoter activation in melanoma cells | SK-MEL-5 TRPM1-promoter luciferase, 24 h; % of positive control, neutral wells = 0 | activation, % at 12.5 µM | actives 0.75% (n = 300,000);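 active means mean activation of at least 80% with every replicate also reaching 80%; inconclusive means mean reaches 80% but some replicate falls short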;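 further: 0% = neutral control wells and 100% = parthenolide positive control wells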
UUG fidelity – yeast start codon fidelity modulation | S. cerevisiae UUG-firefly luciferase reporter, luminescence/redox ratio | activity score, % at 18.7 µM | hit rate 0.13% among 350,000 | AID 602363;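 active means replicate mean at a twofold rise or more, about +100% in these data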;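 further: firefly luciferase made from a UUG start codon reports start codon fidelity; reporter light over untreated wells divided by growth signal over untreated wells; some hits fall short of that in this replicate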
Wnt bcat act – activates Wnt/beta-catenin signaling in a reporter cell assay; activator, plate reader; actives 1.2% (n = 300,000); activation, % at 9.35 µM; in the data active means activation above about 30%, passing the limit was not always enough; inconclusive means no clear call, values can overlap the other calls;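 further: 0% = neutral control wells and 100% = positive control wells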
miR122 inh – miR-122 inhibition in Huh7 cells | activation (reporter increase), % at 12.5 µM | AID 602342 | actives 0.3% (n = 340,000) | Huh7 miR-122 Renilla luciferase sensor, 48 h; neutral wells = 0, positive control = 100;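 active means mean replicate activation score at least 90 and every replicate individually at or above 90; inconclusive means only one of the two criteria met; inactive means neither criterion met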;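 further: higher luciferase means less miR-122 activity so hits act as miR-122 inhibitors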
Numbers without * were called inactive; ? = inconclusive; nt = not tested or not shown; [ ] = remark or other dose.

Abbreviations – A = esBAF inh; B = PglD inh; C = MITF TRPM1 HTS; D = UUG fidelity; E = Wnt bcat act; F = miR122 inh
[1] Cc1ccc(S(=O)(=O)N2Cc3ccccc3CC2C(=O)Nc2ccc3c(c2)OCO3)cc1 (stereo not drawn)
  A = 66*; B = 1; C = 34; D = -7; E = nt; F = -3
[2] COc1ccc(S(=O)(=O)N2Cc3ccccc3CC2C(=O)Nc2ccc3c(c2)OCO3)cc1 (stereo not drawn)
  A = 59*; B = -5; C = 41; D = -22; E = 4; F = 7
[3] COc1ccc(CN(C)C[C@H]2Oc3c(NC(=O)C4CC4)cccc3C(=O)N([C@@H](C)CO)C[C@@H]2C)cc1
  A = 3; B = -3; C = nt; D = nt; E = nt; F = 15[16.7 µM]
[4] Cc1nc(Nc2nc3ccccc3o2)nc(C)c1C(=O)Nc1ccc(F)cc1
  A = nt; B = nt; C = -8; D = nt; E = 43*; F = nt
[5] C[C@@H]1CN([C@H](C)CO)C(=O)c2cc(NC(=O)Nc3cccc4ccccc34)ccc2O[C@H]1CN(C)Cc1ccncc1
  A = -3; B = -2; C = nt; D = nt; E = nt; F = 3[16.7 µM]
[6] Cc1cccc(-c2nnc3sc(-c4ccccc4)nn23)c1
  A = 42*; B = 8; C = ?; D = 5; E = -14; F = 2
[7] c1ccc(-c2nn3c(-c4ccccc4)nnc3s2)cc1
  A = 0; B = nt; C = nt; D = -24; E = nt; F = -6
[8] O=C(NCC1CC1)[C@H]1N[C@H]2c3ccc(-c4ccccc4F)c(=O)n3C[C@H]2[C@@H]1CO
  A = 0; B = 3; C = nt; D = -3; E = nt; F = -9[16.7 µM]
[9] O=C(O)c1c2c(nc3ccccc13)/C(=C/c1ccc(OC(F)F)cc1)CCC2
  A = 59*; B = 0; C = 27; D = -8; E = 9; F = nt
[10] O=C(O)c1c2c(nc3ccccc13)/C(=C/c1ccc(O)cc1)CC2
  A = nt; B = nt; C = -27; D = nt; E = -1; F = nt
[11] OC1CCC2CN3CCc4c([nH]c5ccccc45)C3CC2C1 (stereo not drawn)
  A = 62*; B = -5; C = nt; D = 62; E = -2; F = 9
[12] O=C(C[C@@H]1C=C[C@@H](NC(=O)Nc2ccc3c(c2)OCO3)[C@@H](CO)O1)NCc1ccc2c(c1)OCO2
  A = -6; B = 3; C = nt; D = 11; E = nt; F = nt
[13] C[C@@H]1CN([C@@H](C)CO)C(=O)Cc2cc(NC(=O)Cc3cn(C)c4ccccc34)ccc2O[C@@H]1CN(C)C(=O)Nc1ccc(F)cc1
  A = -3; B = nt; C = nt; D = nt; E = nt; F = 0[16.7 µM]
[14] COc1ccc(C2=NN(S(C)(=O)=O)C(c3ccc4nccnc4c3)C2)cc1 (stereo not drawn)
  A = nt; B = nt; C = 38; D = nt; E = 13; F = nt
[15] COc1ccc(C2CC(c3ccc(OC)c(OC)c3)=NN2S(C)(=O)=O)cc1 (stereo not drawn)
  A = 71*; B = 2; C = 87*; D = -12; E = 45*; F = -14

Following part:
Abbreviations – A = esBAF inh; B = PglD inh; C = MITF TRPM1 HTS; D = UUG fidelity; E = Wnt bcat act; F = miR122 inh
[16] C[C@@H]1CN([C@H](C)CO)C(=O)Cc2cc(NC(=O)CCN3CCOCC3)ccc2O[C@H]1CN(C)S(=O)(=O)c1cn(C)cn1
  A = -3; B = 0; C = nt; D = 2; E = nt; F = 2[16.7 µM]
[17] Cc1ccc(N=C2N=C(N)c3ccccc32)cc1C
  A = 55*; B = -2; C = -3; D = -15; E = nt; F = 9
[18] COc1ccc(N2CCN(C(=O)c3csc4ccccc34)CC2)cc1
  A = 6; B = -4; C = -8; D = -20; E = 0; F = 162*
[19] COc1ccc2nc(N3CCCC(C(=O)NCCc4ccc(OC)c(OC)c4)C3)sc2c1 (stereo not drawn)
  A = 53*; B = 6; C = 37; D = 0; E = 3; F = -4
[20] O=C(c1csc2ccccc12)N1CCN(c2ccc(Cl)c(Cl)c2)CC1
  A = -5; B = -4; C = nt; D = -26; E = 1; F = 0
[21] Cc1cc(C)c2nc(N3CCCC(C(=O)NCCN4CCOCC4)C3)sc2c1 (stereo not drawn)
  A = 68*; B = 4; C = 15; D = -24; E = 13; F = -2
[22] O=C(NCCc1ccc(Cl)cc1)c1ccc2nc(N3CCOCC3)sc2c1
  A = 2; B = 0; C = -3; D = -15; E = 0; F = -5
[23] COc1ccc(CCNC(=O)c2ccc3nc(N4CCCCC4)sc3c2)cc1OC
  A = 51*; B = -4; C = nt; D = -20; E = -5; F = -1
[24] CO[C@@H]1CN(C)C(=O)c2ccc(NS(=O)(=O)c3ccc(Cl)cc3)cc2OC[C@@H](C)N(C(=O)Cc2cccnc2)C[C@H]1C
  A = -13; B = 4; C = nt; D = nt; E = nt; F = nt
[25] CNC[C@@H]1Oc2cc(C#Cc3ccncc3)ccc2S(=O)(=O)N([C@H](C)CO)C[C@@H]1C
  A = -2; B = nt; C = nt; D = nt; E = nt; F = nt
[26] CCCNC(=O)NC[C@H]1[C@H](c2ccc(C3=CCCC3)cc2)[C@@H](CO)N1C(C)=O
  A = -2; B = -1; C = nt; D = -4; E = nt; F = 0[16.7 µM]
[27] COc1ccc(N2CCN(C(=O)c3ccc4nc(N5CCCCC5)sc4c3)CC2)cc1
  A = 62*; B = 5; C = 50; D = -14; E = 12; F = 9
[28] COc1ccc2nc(N3CCN(C(=O)C4COc5ccccc5O4)CC3)sc2c1 (stereo not drawn)
  A = nt; B = -2; C = 100*; D = 1; E = -3; F = nt
[29] Cc1cccc2sc(N3CCN(C(=O)C4COc5ccccc5O4)CC3)nc12 (stereo not drawn)
  A = -4; B = -4; C = 6; D = 9; E = 1; F = nt
[30] Cc1cc2nc(C3CCCN(C(=O)NCc4ccccc4)C3)[nH]c2cc1C (stereo not drawn)
  A = 36; B = 1; C = 39; D = -13; E = 46*; F = -1

One compound at a time (already shown). Order of screens: esBAF inh	PglD inh	MITF TRPM1 HTS	UUG fidelity	Wnt bcat act	miR122 inh
Listed for Cc1ccc(N=C2N=C(N)c3ccccc32)cc1C = 55*	-2	-3	-15	nt	9
Listed for COc1ccc(N2CCN(C(=O)c3ccc4nc(N5CCCCC5)sc4c3)CC2)cc1 = 62*	5	50	-14	12	9
Listed for CO[C@@H]1CN(C)C(=O)c2ccc(NS(=O)(=O)c3ccc(Cl)cc3)cc2OC[C@@H](C)N(C(=O)Cc2cccnc2)C[C@H]1C = -13	4	nt	nt	nt	nt

(cont.)
Abbreviations – A = esBAF inh; B = PglD inh; C = MITF TRPM1 HTS; D = UUG fidelity; E = Wnt bcat act; F = miR122 inh
[31] Cc1cc2nc(C3CCCN(C(=S)Nc4ccccc4C)C3)[nH]c2cc1C (stereo not drawn)
  A = 4; B = -2; C = -13; D = -9; E = -10; F = 3
[32] CSc1cccc(NC(=O)c2cnn3ccccc23)c1
  A = nt; B = nt; C = 104*; D = nt; E = 40*; F = nt
[33] O=C(Nc1cccc(Cl)c1)c1cnn2cccnc12
  A = 39; B = -4; C = 89*; D = -20; E = nt; F = 3
[34] CO[C@@H]1CN(C)C(=O)c2ccc(NC(=O)Nc3ccccc3)cc2OC[C@H](C)N(C(=O)Nc2c(C)noc2C)C[C@H]1C
  A = -2; B = 5; C = nt; D = 6; E = nt; F = 1[16.7 µM]
[35] COc1ccccc1OCC(=O)NCC1CCCCC1
  A = nt; B = 1; C = 12; D = -19; E = nt; F = -8
[36] O=C(COn1nnc2ccccc21)NCC1CCCCC1
  A = 53*; B = -2; C = nt; D = -1; E = 36*; F = 0
[37] Cc1cnc(NC(=O)CN2CCN(c3ccccn3)CC2)s1
  A = nt; B = -3; C = 15; D = -14; E = -8; F = 177*
[38] CS(=O)(=O)c1ccc2sc(NC(=O)c3cc4ccccc4o3)nc2c1
  A = nt; B = 4; C = 39; D = -17; E = -1; F = 1
[39] CCc1nnc(NC(=O)c2ccc(Cl)nc2)s1
  A = ?; B = 5; C = 52; D = -20; E = 0; F = -2
[40] O=C(Nc1nnc(C2CC2)s1)c1ccc(Cl)nc1
  A = 53*; B = 1; C = 46; D = -34; E = 34*; F = nt
[41] CS(=O)(=O)c1ccc2nc(NC(=O)c3cc4ccccc4o3)sc2c1
  A = 67*; B = 7; C = 31; D = -4; E = 17; F = -1
[42] Cc1ccc(C(=O)Nc2nc3ccc(S(C)(=O)=O)cc3s2)o1
  A = 36; B = -1; C = nt; D = -8; E = 53*; F = 2
[43] O=C(Nc1nnc(C2CC2)s1)c1cc2ccccc2o1
  A = 46*; B = 1; C = 66; D = -17; E = ?; F = 11
[44] O=C(Nc1ccc2c(c1)OCO2)N[C@H]1CC[C@H](CCNC(=O)C2CCOCC2)O[C@H]1CO
  A = -3; B = 2; C = nt; D = 7; E = nt; F = nt
[45] O=C1NC2(CCCCC2)C(=O)N1/N=C/c1ccc(O)cc1O
  A = 20; B = -2; C = 19; D = -19; E = nt; F = -10
[46] O=C1NC2(CCCCC2)C(=O)N1/N=C/c1ccccc1Br
  A = 49*; B = -12; C = 27; D = 42; E = -2; F = -2
[47] CNS(=O)(=O)c1ccc(NCC2COc3ccccc3O2)c([N+](=O)[O-])c1 (stereo not drawn)
  A = 44*; B = -6; C = 15; D = -10; E = nt; F = 1

Some values from above:
no. 31 – PglD inh: -2
no. 40 – esBAF inh: 53*
